The list is not random: actives were taken first. Their share in the collection is about 3.7%.
Nrf2 activator: Nrf2 pathway activation. AREc32 ARE-luciferase reporter (MCF7-derived line), luminescence, 24 h. Potency, µM (titrated, usually from 46.1 µM), inactives show at the highest dose activation, actives largely listed as activators. 0.31% of 410,000 active. AID 624171; note: potency is the fitted concentration of half-maximal effect; % of control where 0% means no effect; nearly all actives have a fitted effect of over 65% in size
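Each well held 1000 AREc32 cells, which were incubated with compound for 24 hr at 37 deg C after overnight attachment, and ARE reporter activity was quantified by firefly luciferase luminescence.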
p53 reactivation: re-activators of mutant p53 | AID 504706 | H1299 p53-A138V BP100-luciferase reporter, luminescence, 24 h | Potency, µM (doses to about 92.2 µM), for the others: at the top dose activity change, positive = activation, most hits filed as activators | 0.063% of 320,000 active; note: potency is the fitted concentration of half-maximal effect; % of control where 0% means no effect; nearly all actives have a fitted effect of over 45% in size
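p53-null H1299 cells stably carrying temperature-sensitive p53-A138V and a BP100-luciferase reporter were pinned with compounds (4-point, 1:5 series) and held 24 hrs at 37 deg C. Luminescence was read 10 min after detection reagent.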
ClpP mod: qHTS Assay for Activators of ClpP | Potency, µM (highest dose often 57.5 µM), for the others: top-dose activity change, negative = active | AID 651965, 2013 | purified B. subtilis ClpP, FRET peptide cleavage, 20 min | 1.9% of 340,000 active | ATP-dependent Clp protease proteolytic subunit (Bacillus subtilis (strain 168)), P80244; active = well fitted falling curve with a large enough effect; inconclusive = small, poorly fitted or top-dose-only effect; inactive = no such curve, though single readings can be large or run the other way; note: potency is the fitted concentration of half-maximal effect; the source files actives as falling curves though it sought activators and does not explain the sign; nearly all actives have a fitted effect of over 65% in size
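Purified B. subtilis ClpP, 10 microg/mL final in Tris/HCl pH8 with KCl, BSA, glycerol and Tween-20, cleaved an Abz/nitrotyrosine-quenched decapeptide. Fluorescence (ex 320, em 430) was read at 0 and 20 min at room temperature. Delta was normalized to 5.8 microM ADEP and DMSO/no-enzyme controls.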
Nrf2 inh: blocks Nrf2 signaling. A549 ARE-Fluc reporter, luciferase luminescence, 18-24 h. Potency, µM (titrated, usually from 46 µM), without a hit: at the highest dose activity change, negative = inhibition, hits mostly inhibitors. 2.1% of 360,000 active; note: potency is the fitted concentration of half-maximal effect; % is set by controls: 0 for no effect and ±100 for the full control effect; nearly all actives have a fitted effect of over 60% in size
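Cells were seeded and rested 2 h, then exposed to compounds for 18-24 h. CellTiter-Fluor was read first as a viability measure. BugLite was added 15 min before the final luminescent read of ARE-luciferase activity in A549 cells.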
A549 tox-1: A549 cytotoxicity, counter-screen for Nrf2 inhibitors; A549 ARE-Fluc cells, CellTiter-Fluor viability, 18-24 h; Potency, µM (series often up to 46 µM), for inactives: top-dose activity change, negative = cytotoxicity, most hits filed as inhibitors; 0.16% of 390,000 active; note: potency is the fitted concentration of half-maximal effect; % is set by controls: 0 for no effect and ±100 for the full control effect
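A549 ARE_Fluc cells in 5% FBS OPTI-MEM were exposed to compounds in concentration-response for 18-24 h at 37 deg C. Viability was read by CellTiter-Fluor fluorescence (Ex 405/Em 525) after 30 min, before the luciferase read.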
miR-21 FLuc: raises the signal of a miR-21 reporter | Potency, µM (doses to about 38.3 µM), for inactives: top-dose reporter change, positive = more light | HeLa miR-21 FLuc reporter, luciferase, 48 h | AID 2288 | 340,000 tested, under 10 active; active = well fitted rising curve with a large enough effect; inconclusive = small, poorly fitted or top-dose-only effect; inactive = no such curve, though single readings can be large or run the other way;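 also: % of control where 0% means no effect; miR-21 action dims this reporter so a rising signal means less miR-21 action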
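Using DMEM plus 10% FBS, HeLa miR-21-FLuc cells are incubated with test compounds (final up to about 40uM) for 48 hours; firefly luciferase signal is then imaged following reagent-mediated lysis.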
FLuc counter 3: blocks purified firefly luciferase in Nrf2 counterscreen. shares compounds with Nrf2 inh. purified firefly luciferase, luminescence inhibition. Potency, µM (doses to about 57.5 µM), for the others: at the highest dose activity change, negative = inhibition, hits mostly inhibitors. 4% of 1,400 active; note: potency is the fitted concentration of half-maximal effect; % is set by controls: 0 for no effect and ±100 for the full control effect; nearly all actives have a fitted effect of over 65% in size
A549 tox-2: counter-screen for Nrf2 inhibitors: cytotoxicity in A549 ARE cells | shares compounds with Nrf2 inh | A549 ARE-Fluc cells, cytotoxicity counterscreen | AID 720523 | 2% of 1,400 active | Potency, µM (series often up to 46.1 µM), without a hit: at the top dose activity change, negative = cytotoxicity, usual class: inhibitors;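 note: potency is the fitted concentration of half-maximal effect; cells exposed to compounds for 18 to 24 hours; % is set by controls: 0 for no effect and ±100 for the full control effect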
Nrf2 ARE inh: reduces Nrf2 ARE reporter signal in A549 cells; 74% of 1,400 active; AID 720524; shares compounds with Nrf2 inh; A549 ARE-firefly luciferase reporter, luminescence; Potency, µM (highest dose often 46.1 µM), for inactives: at the top dose activity change, negative = inhibition, hits mostly inhibitors; note: potency is the fitted concentration of half-maximal effect; % is set by controls: 0 for no effect and ±100 for the full control effect; nearly all actives have a fitted effect of over 65% in size
Numbers without * were called inactive; ? = inconclusive; . = not tested or not shown. Unless noted, calls come from the whole dose curve; as a rule, active = well fitted curve in the direction sought with a large enough effect; inconclusive = small, poorly fitted or top-dose-only effect, or another doubt; inactive = no such curve, though single readings can be large; an effect the other way counts as inactive or inconclusive.

1	C[C@H]1C[C@H]2[C@@H]3CCC4=CC(=O)C=C[C@]4(C)[C@@]3(F)[C@@H](O)C[C@]2(C)[C@@]1(O)C(=O)CO
2	CC12C=CC(=O)C=C1CCC1C3CCC(O)(C(=O)CO)C3(C)CC(O)C12F (stereo not given)
3	C[C@H]1C[C@H]2[C@@H]3CCC4=CC(=O)C=C[C@]4(C)[C@@]3(Cl)[C@@H](O)C[C@]2(C)[C@@]1(O)C(=O)CO
4	NC(Cc1ccc(F)cc1)c1csc(Nc2ccc(C(F)(F)F)cn2)n1 (stereo not given)
5	COc1cc2c(c(OC)c1)C(c1cc(OC)c(OC)c(OC)c1)CC(=O)N2 (stereo not given)
6	CCc1nc(N)nc(N)c1-c1ccc(Cl)c(N=[N+]=[N-])c1

Screen / compound no.,1,2,3,4,5,6
Nrf2 activator,-1%,2%,1%,-2%,0%,3%
p53 reactivation,.,.,4%,.,.,.
ClpP mod,2%,5%,1%,-4%,0%,-1%
Nrf2 inh,0.016µM*,0.01µM*,0.015µM*,.,-10%,?
A549 tox-1,-12%,-5%,-23%,.,0%,-6%
miR-21 FLuc,.,.,-31%,.,-3%,.
FLuc counter 3,-1%,4%,3%,.,.,.
A549 tox-2,-8%,-8%,-10%,.,.,.
Nrf2 ARE inh,0.0052µM*,0.01µM*,0.015µM*,.,.,.

7	CCc1nc(N)nc(N)c1-c1ccc(Cl)c([N+](=O)[O-])c1
8	O=C(NC1CCCC1)c1ccc2c(=O)n(Cc3ccccc3)c(SCc3cccc([N+](=O)[O-])c3)nc2c1
9	Cc1ccc(NC(=O)C2CCCN(C(=O)c3ccc(Cl)cc3)C2)cc1S(=O)(=O)N1CCOCC1 (stereo not given)
10	CC(C)c1cnc2c(c1SCC(=O)NCc1ccccc1Cl)c(=O)n(C)c(=O)n2C
11	COc1ccccc1NS(=O)(=O)c1cccc(C(=O)NC2CCN(Cc3ccccc3)CC2)c1
12	FC(F)(F)c1cccc(Nc2nc3nonc3nc2Nc2ccc(Cl)cc2)c1

Screen / compound no.,7,8,9,10,11,12
Nrf2 activator,8%,0%,3%,-1%,2%,-3%
p53 reactivation,.,.,-3%,.,2%,.
ClpP mod,-1%,0%,.,0%,.,-1%
Nrf2 inh,0.37µM*,.,7.3µM*,.,2.3µM*,0.58µM*
A549 tox-1,-1%,3%,?,9%,?,2.9µM*
miR-21 FLuc,.,-1%,22%,-3%,.,?
FLuc counter 3,1%,.,1%,.,-1%,?
A549 tox-2,-5%,.,-23%,.,-20%,4.6µM*
Nrf2 ARE inh,0.92µM*,.,13µM*,.,?,1µM*

13	O=C(Nc1cccc(C(F)(F)F)c1)c1cc(-c2ccc(Cl)cc2)on1
14	CC(=O)N(C(C)=O)c1ncc2c([nH]c3ccccc32)c1C#N
15	Cc1oc(-c2ccc(C(=O)NCc3cccc(F)c3)cc2)nc1COc1ccccc1
16	Brc1ccc(C[n+]2ccccc2)cc1
17	Brc1c(C[n+]2ccccc2)nc2ccccn12

Screen / compound no.,13,14,15,16,17
Nrf2 activator,1%,0%,1%,0%,-1%
p53 reactivation,.,-21%,.,8%,-4%
ClpP mod,-1%,8%,?,1%,.
Nrf2 inh,-22%,8.2µM*,-14%,2.6µM*,-25%
A549 tox-1,2%,-15%,0%,-7%,7%
miR-21 FLuc,-26%,21%,5%,.,-2%
FLuc counter 3,.,-18%,.,-1%,.
A549 tox-2,.,-11%,.,-7%,.
Nrf2 ARE inh,.,.,.,4.1µM*,.

An excerpt from above in order of SMILES length, rising.
7	CCc1nc(N)nc(N)c1-c1ccc(Cl)c([N+](=O)[O-])c1
13	O=C(Nc1cccc(C(F)(F)F)c1)c1cc(-c2ccc(Cl)cc2)on1
11	COc1ccccc1NS(=O)(=O)c1cccc(C(=O)NC2CCN(Cc3ccccc3)CC2)c1

Screen / compound no.,7,13,11
Nrf2 activator,8%,1%,2%
p53 reactivation,.,.,2%
ClpP mod,-1%,-1%,.
Nrf2 inh,0.37µM*,-22%,2.3µM*
A549 tox-1,-1%,2%,?
miR-21 FLuc,.,-26%,.
FLuc counter 3,1%,.,-1%
A549 tox-2,-5%,.,-20%
Nrf2 ARE inh,0.92µM*,.,?
